Experiments:
[1] = biological target: Delta-type opioid receptor (Homo sapiens, UniProt P41143); assay: Displacement of [3H]naltrindole from cloned human delta opioid receptor expressed in CHO cells
Nociceptin receptor = Nociceptin receptor (Homo sapiens, UniProt P41146); assay: Agonist activity on nociceptin-induced maximal [35S]GTP-gamma-S binding to ORL1 expressed in CHO cells

Structure (SMILES): CCn1c(=O)n([C@@H]2CCN(CC3CCCCCCC3)C[C@H]2CO)c2ccccc21
- IC50 [1]: > 10 µM
- EC50 (Nociceptin receptor): > 10 µM

— BindingDB's records for 16451050
